SMILES strings stand for the structures.

Chains of the proteins cited; added tags and fusions are not shown.
UniProt P11712, whole entry: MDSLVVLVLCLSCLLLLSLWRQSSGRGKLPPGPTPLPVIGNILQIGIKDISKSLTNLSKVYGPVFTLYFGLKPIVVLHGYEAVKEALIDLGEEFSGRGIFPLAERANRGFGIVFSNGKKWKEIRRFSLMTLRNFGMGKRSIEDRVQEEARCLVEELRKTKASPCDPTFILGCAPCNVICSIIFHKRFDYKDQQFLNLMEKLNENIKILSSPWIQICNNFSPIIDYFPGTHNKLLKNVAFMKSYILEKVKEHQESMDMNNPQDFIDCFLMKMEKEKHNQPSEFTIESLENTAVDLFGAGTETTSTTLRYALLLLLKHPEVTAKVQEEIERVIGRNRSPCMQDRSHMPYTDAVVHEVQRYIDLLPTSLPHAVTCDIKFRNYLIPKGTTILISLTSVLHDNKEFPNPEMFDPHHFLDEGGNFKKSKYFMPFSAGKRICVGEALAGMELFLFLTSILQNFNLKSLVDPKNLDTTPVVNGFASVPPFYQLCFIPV

The values below come from ChEMBL document CHEMBL4052712, “Design and optimization of highly-selective, broad spectrum fungal CYP51 inhibitors” (Bioorg Med Chem Lett, 2017).

Experiment [1] addresses Cytochrome P450 2C9 (Homo sapiens, UniProt P11712). Nature of the experiment: Inhibition of CYP2C9 in human hepatocyte microsomes using diclofenac substrate by HPLC/MS/MS method. The format is ADME.
For experiment [2], the target named is Cytochrome P450 2C19, Homo sapiens (UniProt P33261). Nature of the experiment: Inhibition of CYP2C19 in human hepatocyte microsomes using omeprazole substrate by HPLC/MS/MS method.

With `OC(Cn1cncn1)(Cn1cncn1)c1ccc(F)cc1F` [FLUCONAZOLE], the IC50 – broadly, the point on the concentration scale where inhibition reaches its midpoint – is 34 µM in experiment [1] and 13 µM in experiment [2].
